Source: patent US20220144812A1, “QUINOLINE DERIVATIVES AND THEIR USE FOR THE TREATMENT OF CANCER” (Epizyme, Inc., priority 2019, published 2022)

Sequences of proteins named here, by UniProt entry; tags and fusion partners are left off. Residues count along the entry.
UniProt Q09472, 1048-1664 limits assumed: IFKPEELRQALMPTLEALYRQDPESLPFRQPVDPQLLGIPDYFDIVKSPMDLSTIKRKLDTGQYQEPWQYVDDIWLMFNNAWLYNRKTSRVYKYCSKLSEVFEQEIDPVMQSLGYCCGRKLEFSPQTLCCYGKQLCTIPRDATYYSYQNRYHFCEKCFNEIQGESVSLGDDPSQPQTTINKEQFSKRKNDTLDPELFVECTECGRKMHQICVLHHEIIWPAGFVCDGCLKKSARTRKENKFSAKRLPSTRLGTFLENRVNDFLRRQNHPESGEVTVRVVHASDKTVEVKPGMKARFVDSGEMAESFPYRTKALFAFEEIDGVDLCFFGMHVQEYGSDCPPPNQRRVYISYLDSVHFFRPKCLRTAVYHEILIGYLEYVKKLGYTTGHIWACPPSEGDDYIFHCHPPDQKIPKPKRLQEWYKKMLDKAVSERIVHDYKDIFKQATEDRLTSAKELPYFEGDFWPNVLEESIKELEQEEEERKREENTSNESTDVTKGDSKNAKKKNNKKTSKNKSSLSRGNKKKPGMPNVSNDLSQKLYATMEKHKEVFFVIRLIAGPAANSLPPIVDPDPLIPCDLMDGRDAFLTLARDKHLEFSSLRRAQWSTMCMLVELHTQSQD
UniProt Q92793, 1084-1701 limits assumed: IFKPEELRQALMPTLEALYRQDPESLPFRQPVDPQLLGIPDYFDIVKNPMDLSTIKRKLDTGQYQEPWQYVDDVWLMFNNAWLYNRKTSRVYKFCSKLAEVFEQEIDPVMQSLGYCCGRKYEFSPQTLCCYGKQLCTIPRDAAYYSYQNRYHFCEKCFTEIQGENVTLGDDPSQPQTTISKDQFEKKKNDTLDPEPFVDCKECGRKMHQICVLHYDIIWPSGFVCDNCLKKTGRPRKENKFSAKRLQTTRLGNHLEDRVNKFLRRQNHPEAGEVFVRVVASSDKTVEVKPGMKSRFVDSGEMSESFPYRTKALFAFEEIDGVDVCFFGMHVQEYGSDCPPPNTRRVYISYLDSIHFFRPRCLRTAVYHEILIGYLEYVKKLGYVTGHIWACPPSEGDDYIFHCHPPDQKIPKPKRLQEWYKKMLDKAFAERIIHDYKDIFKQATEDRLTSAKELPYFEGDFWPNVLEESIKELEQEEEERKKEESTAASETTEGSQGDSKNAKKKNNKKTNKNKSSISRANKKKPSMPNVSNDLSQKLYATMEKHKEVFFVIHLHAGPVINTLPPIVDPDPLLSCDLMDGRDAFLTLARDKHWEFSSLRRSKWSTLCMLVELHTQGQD

Experiments:
EP300 (P300(1048-1664)) = EP300 (P300(1048-1664)) (Homo sapiens, UniProt Q09472); assay: Biochemical assay for EP300, SAMDI; details: read-out: EP300 Biochemistry IC50 (micromolar); EP300, SAMDI
Excerpt: The following example describes materials and methods relating to a biochemical assay for EP300. IC50 values (micromolar (μM)) are summarized in Table 1, Table 2, and Table 3 under the column labeled: “EP300 Biochemistry IC50 (micromolar).”

[1] = system: H3K18Ac in HB-CLS-2 cells; assay: H3K18AC in-cell western (ICW) assay; details: read-out: CREBBP ICW IC50 (micromolar)
Excerpt: The following example describes methods and materials relating to an H3K18AC in-cell western assay. IC50 values (micromolar (μM)) are summarized in Table 1, Table 2, and Table 3 under the column labeled: “CREBBP ICW IC50 (micromolar).”
MATERIALS: HB-CLS-2 cell line, DMEM: Ham's F12 medium (1:1 mixture), penicillin-streptomycin, heat inactivated fetal bovine serum, D-PBS, Odyssey blocking buffer, 800CW goat anti-rabbit IgG (H+L) antibody, Licor Odyssey CLx Infrared Scanner, H3K18Ac rabbit monoclonal antibody. DRAQS fluorescent probe solution (5 mM), and 100% methanol were commercially available. HB-CLS-2 adherent cells were maintained in complete growth medium (DMEM: Ham's F12 supplemented with 10% v/v heat inactivated fetal bovine serum) and cultured at 37° C. under 5% CO2.
METHOD: Cell Treatment, ICW for detection of H3K18Ac and DNA content. HB-CLS-2 cells were seeded in assay medium (DMEM: Ham's F12 supplemented with 10% v/v heat inactivated fetal bovine serum and 1% Penicillin/Streptomycin) at a concentration of 80,000 cells per mL in a Poly-D-Lysine coated 384-well culture plates at 50 μL per well. Plates were incubated at room temperature for 30 minutes and then incubated at 37° C., 5% CO2 for additional 16-24 hours. Compounds and DMSO normalization were then added directly to the plates using a D300 Digital Dispenser and returned to the incubator at 37° C., 5% CO2 for 2 hrs. After the incubation, the contents of the plates were discarded into the appropriate waste stream and blotted on laboratory tissue to remove residual liquid. 90 μL per well of 100% ice cold methanol was added to the plates and incubated at room temperature for 15 minutes. Then methanol was then discarded into the appropriate waste stream and the plates again blotted on laboratory tissue to remove residual liquid. Plates were transferred to a Biotek 405 plate washer and washed 3 times with 100 μL per well of wash buffer (1X PBS containing 0.1% Triton X-100 (v/v)). Next, 50 μL per well of Odyssey blocking buffer with 0.1% Tween 20 (v/v) was added to each plate and incubated for 1 hour at room temperature. Blocking buffer was removed and 20 μL of primary antibody were added (α-H3K18Ac diluted 1:800 in Odyssey buffer with 0.1% Tween 20 (v/v)) and plates were incubated overnight (16 hours) at 4° C. Plates were washed 5 times with 100 μL per well of wash buffer. Next 20 μL per well of secondary antibody was added (1:400 800CW goat anti-rabbit IgG (H+L) antibody, 1:2000 DRAQ5 in Odyssey buffer with 0.1% Tween 20 (v/v)) and incubated for 1 hour at room temperature. The plates were washed 3 times with 100 μL per well wash buffer then 3 times with 100 μL per well of water. Plates were allowed to dry at room temperature then imaged on the Licor Odyssey CLx machine which measured integrated intensity at 700 nm and 800 nm wavelengths. Both 700 and 800 channels were scanned.

CREBBP (1084-1701) = CREBBP (1084-1701) (Homo sapiens, UniProt Q92793); assay: Biochemical assay for CREBBP (1084-1701), SAMDI; details: read-out: CREBBP Biochemistry IC50 (micromolar), SAMDI
Excerpt: The following example describes materials and methods relating to a biochemical assay for CREBBP (1084-1701). IC50 values (micromolar (μM)) are summarized in Table 1, Table 2, and Table 3 under the column labeled: “CREBBP Biochemistry IC50 (micromolar).”
MATERIALS: Reagents 1M Tris pH 8.0, Tween 20 10%, DTT, bovine serum gelatin (BSG) 2%, Peptide #233 (biotin-H3 11-25, K14R, K23R), Acetyl-CoA, CREBBP (1084-1701), formic acid (100%), and sodium bicarbonate were commercially available.
METHODS: The effect of compounds was measured in the following biochemical assay using CREBBP (1084-1701). Enzyme mix 30 μL per well was added using a Multi-drop to wells of prepared Compound Stock plate. The enzyme was incubated in the Compound Stock plate for 30 minutes at room temperature. Substrate mix, 20 μL per well, was added to Compound Stock plate using a Multi-drop. The plate was covered and incubate 30 minutes at room temperature. The reaction was stopped with addition of 5 μL per well of 5% formic acid using a Multi-drop. The plate was Incubated for 30 minutes at room temperature. The reaction mixture was neutralized with addition of 5 μL per well of 10% sodium bicarbonate using a Multi-drop. The plate was Incubated for 35 minutes at room temperature. The reaction mixture was Transferred 2.5 μL per well to a SAMDI biochip. The plate was Incubated for 60 minutes at room temperature. The samples were washed, dried, and matrix applied to SAMDI biochip. The SAMDI biochip was then read on the mass spectrometer.

647V cells = assay: High throughput proliferation (HTP) assay; details: read-out: CREBBP HTP IC50 (micromolar)
Excerpt: The following example describes methods and materials relating to a high throughput proliferation (HTP) assay. IC50 values (micromolar) are summarized in Table 1, Table 2, and Table 3 under the column labeled: “CREBBP HTP IC50 (micromolar).”
MATERIALS: 647V cell line, Dulbecco's MEM, penicillin-streptomycin, heat inactivated fetal bovine serum, D-PBS, and CellTiter-Glo were commercially available.
647V adherent cells were maintained in complete growth medium (Dulbecco's MEM supplemented with 15% v/v heat inactivated fetal bovine serum) and cultured at 37° C. under 5% CO2.
METHOD: Measurement of the effect of compound in High Throughput Proliferation (HTP) assays was performed as follows: Exponentially growing 647V cells were plated, in triplicate, in 384-well plates at the appropriate cell density in a final volume of 50 μl. Cells were incubated in the presence of increasing concentrations of compound. Viable cell number was determined at day 7 by addition of 35 μl CellTiter-Glo to each well of the plate, incubated in the dark for 30 minutes, and read on a PerkinElmer EnVision instrument to enumerate the number of cells.

| SMILES | IC50 (EP300 (P300(1048-1664))) [µM] | IC50 [1] [µM] | IC50 (CREBBP (1084-1701)) [µM] | IC50 (647V cells) [µM] |
| --- | --- | --- | --- | --- |
| CCn1ncc(CN(C)C(=O)c2nc(-c3cc4c(NC)n[nH]c4cc3C)nc3ccc(Cl)cc23)c1C | 0.0032 | 0.0323 | 0.0094 | 0.0242 |
| CCn1ncc(CN(C)C(=O)c2cc(-c3cc(NCCNC)cc(OC)n3)nc3ccc(Cl)cc23)c1C | 0.0188 | 0.0347 | 0.0418 | 0.0252 |
| CCn1ncc(CN(C)C(=O)c2nc(-c3cc(N(C)C)c4cn[nH]c4c3)nc3ccc(Cl)cc23)c1C | 0.129 | 0.485 | 0.0328 | 0.492 |
| CCc1ncc(CN(C)C(=O)c2cc(-c3ccc(NCCN(C)C)c(F)n3)nc3ccc(Cl)cc23)n1C | 0.0513 | 0.303 | 0.0428 | 0.3 |
| CCc1ncc(CN(C)C(=O)c2nc(-c3cc4c(NC)[nH]nc4cc3C)nc3ccc(COC)cc23)n1C | 0.0136 | 0.114 | 0.0366 | 0.0584 |
| Cc1nc(-c2cc(C(=O)N(C)Cc3onc(C4CC4)c3C)c3cc(Cl)ccc3n2)ccc1NCCN(C)C | 3.83 | 1.54 | 2.59 | 1.16 |
| CCn1ncc(CN(C)C(=O)c2cc(-c3ccc(NCCN(C)C)c(C)n3)nc3ccc(Cl)cc23)c1CF | 0.693 | 0.587 | 0.18 | 0.998 |
| CCn1ncc(CN(C)C(=O)c2nc(-c3ccc(OCCNC)c(Cl)c3)nc3ccc(CNC)cc23)c1C | 3.29 | 7.17 | 1.15 | 1.71 |
| CCn1ncc(CN(C)C(=O)c2cc(-c3cccc(NC(=O)OC(C)(C)C)n3)nc3ccc(Cl)cc23)c1C | 3.3 | 6.2 | 7.9 | 5.1 |
| CCn1ncc(CN(C)C(=O)c2nc(-c3cc(C)c4[nH]nc(N)c4c3)nc3ccc(Cl)cc23)c1C | 0.0235 | 0.113 | 0.0115 | 0.12 |
| CCn1ncc(CN(C)C(=O)c2nc(-c3cc4c(NC)[nH]nc4cc3C)nc3ccc(COC)cc23)c1C | 0.0132 | 0.0764 | 0.0338 | 0.0665 |
| CCn1ncc(CN(C)C(=O)c2nc(-c3cc(CO)ccc3C)nc3ccc(Cl)cc23)c1C | 10 | 6.3 | 18 | 7.6 |
